Biological target: Delta-type opioid receptor (Homo sapiens, UniProt P41143)
Experiment: ChEBML_146436
Description: Affinity for opioid receptor delta sites

Amino acid sequences for entries named in this document (tags omitted).
UniProt P41143, whole entry, looked up: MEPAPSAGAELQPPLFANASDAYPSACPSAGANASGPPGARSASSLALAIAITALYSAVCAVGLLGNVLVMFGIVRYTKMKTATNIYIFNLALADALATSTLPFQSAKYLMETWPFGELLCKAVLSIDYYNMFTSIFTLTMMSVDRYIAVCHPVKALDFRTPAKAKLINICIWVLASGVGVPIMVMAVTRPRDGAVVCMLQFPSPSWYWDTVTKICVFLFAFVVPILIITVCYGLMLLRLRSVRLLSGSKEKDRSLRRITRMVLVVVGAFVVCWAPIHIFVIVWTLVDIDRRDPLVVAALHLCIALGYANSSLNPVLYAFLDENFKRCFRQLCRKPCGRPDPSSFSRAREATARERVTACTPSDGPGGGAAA

**Q.** For `CN(C(=O)Cc1ccc(Cl)c(Cl)c1)[C@@H]1CCCC[C@H]1N1CCCC1`, which Ki is on record?
**A.** > 10 µM

From BindingDB's records for 1652025 (Zambeletti Research Laboratories, 1991)
